This is an account of results in patent US4571399A, “7-(1-Methyl-5-p-methylbenzoylpyrrole-2-acetamidoethyl)-theophylline with anti-platelet aggregant and broncholytic activity” (Medosan Industrie Biochimiche Riunite S.p.A., priority 1983, dated 1986).

“Also recorded” adds a separate entry of the source. Like-named read-outs stand apart in the source and are kept apart here.

Series [1] relates to platelet aggregation induced with ADP (platelet rich plasma). Description: In vitro anti-platelet aggregant activity (Born's method, ADP-induced aggregation). The series is classed as cell-based, rat. The following applies: for inhibition at 1 µg/mL / inhibition at 5 µg/mL / inhibition at 10 µg/mL: Rattus norvegicus, Platelet, 0.05 h, 3 min incubation; for inhibition at 1 µg/mL: dose 1 γ/ml; for inhibition at 5 µg/mL: dose 5 γ/ml; for inhibition at 10 µg/mL: dose 10 γ/ml.

Series [2] relates to mouse. The following applies: i.p., literature value; cited from earlier work.
Series [3] concerns guinea pig tracheal chains (histamine as bronchoconstrictor). Description: Broncholytic activity in vitro on tracheal chains (Akasu's method), antagonism of histamine. The following applies: summary in words. The series is classed as cell-based.
The nature of series [4]: Solubility. It is filed as physicochemical. The following applies: in dichloromethane, N,N'-dimethylformamide.
Series [5] in a line: Antinflammatory and analgesic effects (no method described). The following applies: summary in words; no data shown.
Series [6] can be described thus: in vivo. The following applies: mouse.
[7] abbreviates: read-out: Inhibition % of platelet aggregation, ADP 7,08 μmol/l.
[8] abbreviates: ADP 7,08 μmol/l, read-out: Inhibition % of platelet aggregation.

Take `CC(=O)Oc1ccccc1C(=O)O` [Aspirin, reference compound]: the inhibition at 1 µg/mL is 29% in series [1] (read-out: Inhibition % of platelet aggregation, ADP 2 μmol/l); 19% in series [1] (read-out: Inhibition % of platelet aggregation, ADP 5 μmol/l); 15% in series [1] (setting [7]). Further, in series [1] (setting [7]), the inhibition at 5 µg/mL worked out at 60%. Moreover, the inhibition at 10 µg/mL in series [1] (setting [7]) was 100%. The “DL50 (LD50)” value in series [2] is reported as 495 mg/kg.

What is called LD50 is the dose expected to kill half of the subjects tested. In the case of `Cc1ccc(C(=O)c2ccc(CC(=O)NCCn3cnc4c3c(=O)n(C)c(=O)n4C)n2C)cc1` [compound (1), 7-(1-methyl-5-p-methylbenzoylpyrrole-2-acetamidoethyl)theophylline], the inhibition at 1 µg/mL in series [1] (ADP 2 μmol/l, read-out: Inhibition % of platelet aggregation) is 30%. Further, in series [1] (ADP 5 μmol/l, read-out: Inhibition % of platelet aggregation), the inhibition at 1 µg/mL came out at 21%. Further, in series [1] (setting [8]), the inhibition at 1 µg/mL was determined as 12%, the inhibition at 5 µg/mL came to 59% and the inhibition at 10 µg/mL amounted to 90%. In addition, in series [1] (summary in words), the anti-platelet aggregant activity result is on record as “pronounced therapeutically useful anti-platelet aggregant activity”. Further, the broncholytic activity result in series [3] is on record as “good broncholytic action; also recorded: good broncholytic activity comparable to that of theophylline”. Besides, the Solubility entry in series [4] is recorded as “soluble in dichloromethane, N,N'-dimethylformamide”. Also, in series [5], the analgesic effect result is “low antinflammatory and analgesic effects”; the antinflammatory effect result was “low antinflammatory and analgesic effects”. The molecule further registered an LD50 in series [6] (ip) of 970 mg/kg. This molecule came in with an LD50 in series [6] (po) of 1400 mg/kg.
